Each structure is given as a SMILES string. pIC50: −log10 of the molar value.

By UniProt entry, the sequences of proteins in these tests, tags left out. Where a name states a change or a piece, a line headed by the entry shows the natural chain unless it says otherwise. Chains listed by the source or under a name are the forms on record and can include a tag or linker.
UniProt P42336, other isoform, or with tags, fused parts or gaps: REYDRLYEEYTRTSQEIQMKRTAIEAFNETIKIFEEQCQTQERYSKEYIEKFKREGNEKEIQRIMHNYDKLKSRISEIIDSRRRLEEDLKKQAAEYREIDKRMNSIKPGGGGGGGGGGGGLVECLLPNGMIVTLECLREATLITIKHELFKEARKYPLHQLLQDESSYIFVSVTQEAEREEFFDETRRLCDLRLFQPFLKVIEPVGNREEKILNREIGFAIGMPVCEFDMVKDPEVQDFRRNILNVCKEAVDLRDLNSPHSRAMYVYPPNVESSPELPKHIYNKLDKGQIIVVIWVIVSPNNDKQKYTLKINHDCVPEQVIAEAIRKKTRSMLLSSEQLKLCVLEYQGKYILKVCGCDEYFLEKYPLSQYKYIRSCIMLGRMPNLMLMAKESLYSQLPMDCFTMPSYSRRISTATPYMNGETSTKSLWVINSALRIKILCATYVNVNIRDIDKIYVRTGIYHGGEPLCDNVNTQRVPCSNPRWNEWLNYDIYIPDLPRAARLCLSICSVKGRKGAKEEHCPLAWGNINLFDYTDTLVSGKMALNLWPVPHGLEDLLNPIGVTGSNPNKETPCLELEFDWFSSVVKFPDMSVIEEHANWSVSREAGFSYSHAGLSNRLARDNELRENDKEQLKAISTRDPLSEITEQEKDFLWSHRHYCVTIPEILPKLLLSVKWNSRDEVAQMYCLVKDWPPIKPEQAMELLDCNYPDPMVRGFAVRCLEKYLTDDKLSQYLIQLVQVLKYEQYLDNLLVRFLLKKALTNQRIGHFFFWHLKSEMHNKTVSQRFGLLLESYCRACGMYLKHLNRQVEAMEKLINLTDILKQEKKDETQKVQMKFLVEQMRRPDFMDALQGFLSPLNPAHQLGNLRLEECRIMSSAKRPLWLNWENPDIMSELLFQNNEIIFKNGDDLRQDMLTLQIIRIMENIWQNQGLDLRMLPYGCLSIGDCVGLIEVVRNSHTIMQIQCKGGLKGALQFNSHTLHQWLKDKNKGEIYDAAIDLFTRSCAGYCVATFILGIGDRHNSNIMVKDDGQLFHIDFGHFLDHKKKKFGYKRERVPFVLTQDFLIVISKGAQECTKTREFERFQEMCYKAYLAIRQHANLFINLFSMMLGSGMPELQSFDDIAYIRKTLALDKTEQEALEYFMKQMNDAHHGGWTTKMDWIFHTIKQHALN
UniProt O00329: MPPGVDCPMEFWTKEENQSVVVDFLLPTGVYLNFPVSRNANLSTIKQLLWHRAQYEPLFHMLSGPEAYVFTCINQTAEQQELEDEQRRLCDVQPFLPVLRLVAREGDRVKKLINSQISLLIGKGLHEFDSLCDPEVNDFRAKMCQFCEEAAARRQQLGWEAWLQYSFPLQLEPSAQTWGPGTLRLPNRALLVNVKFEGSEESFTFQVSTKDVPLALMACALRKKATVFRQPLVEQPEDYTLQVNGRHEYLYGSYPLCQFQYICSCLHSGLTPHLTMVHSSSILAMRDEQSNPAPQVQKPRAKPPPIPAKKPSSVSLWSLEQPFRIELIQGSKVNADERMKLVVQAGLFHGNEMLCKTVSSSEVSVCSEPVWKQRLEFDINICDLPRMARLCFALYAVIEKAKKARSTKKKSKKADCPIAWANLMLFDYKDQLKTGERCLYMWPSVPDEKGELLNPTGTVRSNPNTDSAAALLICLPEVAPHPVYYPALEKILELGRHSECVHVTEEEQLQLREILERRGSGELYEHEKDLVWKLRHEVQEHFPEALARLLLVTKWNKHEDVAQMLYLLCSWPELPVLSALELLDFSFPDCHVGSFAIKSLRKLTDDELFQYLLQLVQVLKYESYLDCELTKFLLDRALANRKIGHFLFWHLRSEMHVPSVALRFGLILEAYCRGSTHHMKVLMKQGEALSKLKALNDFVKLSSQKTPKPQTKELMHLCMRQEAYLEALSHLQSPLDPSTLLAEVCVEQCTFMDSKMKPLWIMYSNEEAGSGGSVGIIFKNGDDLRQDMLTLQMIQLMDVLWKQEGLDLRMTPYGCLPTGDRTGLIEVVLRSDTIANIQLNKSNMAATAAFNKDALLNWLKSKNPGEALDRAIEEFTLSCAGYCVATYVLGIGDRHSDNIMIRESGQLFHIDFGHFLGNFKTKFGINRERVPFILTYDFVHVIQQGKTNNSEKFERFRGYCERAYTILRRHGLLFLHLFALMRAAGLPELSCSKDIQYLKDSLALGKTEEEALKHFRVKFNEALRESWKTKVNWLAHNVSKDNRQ

One test addresses PI3K alpha (Homo sapiens (Human), UniProt P42336). The test is described as follows: Enzymatic PI3K alpha isoform inhibition (lipid kinase, Kinase-Glo luminescence). It counts as biochemical. Conditions: enzymatic assay. A general note: Kinase-Glo measures the ATP left after a reaction by luminescence.
In the case of `COc1ncc(N2CCc3ncnc(N[C@H]4CCN(C(=O)C5CCOCC5)C4)c3C2)cc1C` [Example 83, {(S)-3-[6-(6-Methoxy-5-methyl-pyridin-3-yl)-5,6,7,8-tetrahydro-pyrido[4,3-d]pyrimidin-4-ylamino]-pyrrolidin-1-yl}-(tetrahydro-pyran-4-yl)-methanone], the pIC50 is 6.36.

Take `COc1ncc(N2CCc3ncnc(O[C@H]4CCN(C(=O)N5CCN(C)CC5)C4)c3C2)cc1C(F)(F)F` [Example 85, {(S)-3-[6-(6-methoxy-5-trifluoromethyl-pyridin-3-yl)-5,6,7,8-tetrahydro-pyrido[4,3-d]pyrimidin-4-yloxy]-pyrrolidin-1-yl}-(4-methyl-piperazin-1-yl)-methanone]: the pIC50 is 6.24.

With `COC(=O)N1CC[C@H](Oc2ncnc3c2CN(c2cnc(OC)c(C#N)c2)CC3)C1` [Example 90, (S)-3-[6-(5-cyano-6-methoxy-pyridin-3-yl)-5,6,7,8-tetrahydro-pyrido[4,3-d]pyrimidin-4-yloxy]-pyrrolidine-1-carboxylic acid methyl ester], the pIC50 is 5.70.

With `COc1ncc(N2CCc3ncnc(N[C@H]4CCN(C(=O)[C@H]5CC[C@H](OC)CC5)C4)c3C2)cc1C(F)(F)F` (single isomer, unassigned) [Example 74], the pIC50 was 6.95.

For the molecule `COc1ncc(N2CCc3ncnc(N[C@H]4CCN(C(=O)[C@H]5CC[C@@H](OC)CC5)C4)c3C2)cc1C(F)(F)F` (single isomer, unassigned) [Example 73], the pIC50 was 7.27.

The next test deals with PI3K delta (Homo sapiens (Human), UniProt O00329). The test is described as follows: Enzymatic PI3K delta isoform inhibition (lipid kinase, Kinase-Glo luminescence). It is filed as biochemical. Conditions: enzymatic assay.
`COc1ncc(N2CCc3ncnc(O[C@H]4CCN(C(=O)c5cnco5)C4)c3C2)cc1C(F)(F)F` [Example 94, {(S)-3-[6-(6-Methoxy-5-trifluoromethyl-pyridin-3-yl)-5,6,7,8-tetrahydro-pyrido[4,3-d]pyrimidin-4-yloxy]-pyrrolidin-1-yl}-oxazol-5-yl-methanone] had a pIC50 of 7.68.

Regarding `COc1ncc(N2CCc3ncnc(N[C@H]4CCN(C(=O)C5CCOCC5)C4)c3C2)cc1C` [Example 83, {(S)-3-[6-(6-Methoxy-5-methyl-pyridin-3-yl)-5,6,7,8-tetrahydro-pyrido[4,3-d]pyrimidin-4-ylamino]-pyrrolidin-1-yl}-(tetrahydro-pyran-4-yl)-methanone], the pIC50 is 7.77.

In turn, `COc1ncc(N2CCc3ncnc(O[C@H]4CCN(C(=O)C5CCOCC5)C4)c3C2)cc1C` [Example 1, {(S)-3-[6-(6-Methoxy-5-methyl-pyridin-3-yl)-5,6,7,8-tetrahydro-pyrido[4,3-d]pyrimidin-4-yloxy]-pyrrolidin-1-yl}-(tetrahydro-pyran-4-yl)-methanone] gave a pIC50 of 7.82.

The target of a further test is human phosphoinositide-3 kinase (PI3K) delta (Homo sapiens (Human), UniProt O00329). The test can be described thus: PI3K-mediated Akt 1/2 (S473) phosphorylation in Rat-1 cells (AlphaScreen SureFire). Conditions: Rat-1 cells overexpressing myristoylated human PI3K delta, p-Akt (Ser473); read-out: Cell PI3Kδ/ IC50 [umol l − 1]. It counts as cell-based. The method, then:
Rat-1 cells stably overexpressing a myristoylated form of the catalytic subunit of human phosphoinositide-3 kinase (PI3K) alpha, beta or delta were plated in 384-well plates at a density of 7500 (PI3K alpha), 6200 (PI3K beta), or 4000 (PI3K delta) cells in 30 ul complete growth medium (Dulbecco's modified Eagle's medium (DMEM high glucose) supplemented with 10% (v/v) fetal bovine serum, 1% (v/v) MEM non essential amino acids, 10 mM HEPES, 2 mM L-glutamine, 10 μg/mL puromycin and 1% (v/v) Penicillin/Streptomycin) and were incubated at […]/5% CO2/95% humidity for 24 h. Compounds were diluted in 384-well compound plates to obtain 8-point serial dilutions for 40 test compounds in 90% DMSO, as well as 4 reference compounds plus 16 high controls and 16 low (inhibited) controls. Predilution plates were prepared by dispensing pipetting 250 nl of compound solutions into 384-well polypropylen plates using a Hummingwell nanoliter dispensor. Compounds were prediluted by the addition of 49.75 ul complete growth medium. 10 ul of prediluted compound solution were transferred to the cell plate using a 384-well pipettor, resulting in a final DMSO concentration of 0.11%. […]
For detection of p-AKT (Ser473), the SureFire® p-Akt 1/2 (Ser473) Assay Kit (PerkinElmer, U.S.A) was used. […] The plate was read on an AlphaScreen® compatible plate reader, using standard AlphaScreen® settings.
As to `CCC(=O)N1CC[C@H](Nc2ncnc3c2CN(c2cnc(OC)c(C(F)(F)F)c2)CC3)C1` [Example 67, 1-{(S)-3-[6-(6-Methoxy-5-trifluoromethyl-pyridin-3-yl)-5,6,7,8-tetrahydro-pyrido[4,3-d]pyrimidin-4-ylamino]-pyrrolidin-1-yl}-propan-1-one], the pIC50 is 7.33.
